# In PubChem BioAssay (NCI):
#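 Protocol summary: plate cells (96-well), add compound at 5 concentrations, incubate 48 h, interpolate endpoints linearly. The concentration for 50% growth inhibition is given as GI50. TGI denotes the concentration required for complete inhibition of growth.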
# Tests used:
# Assay in all cases: DTP human tumour cell line panel, 48 h
# [1] = tested on: NCI-H322M lung
# [2] = tested on: BT-549 breast
# [3] = tested on: TK-10 renal
# [4] = tested on: NCI-H23 lung
# [5] = tested on: HCT-15 colon
# [6] = tested on: SK-OV-3 ovarian
# [7] = tested on: COLO 205 colon
# [8] = tested on: K-562 leukemia
# [9] = tested on: UACC-62 melanoma
# [10] = tested on: T-47D breast
# [11] = tested on: SNB-19 CNS
# [12] = tested on: ACHN renal
# [13] = tested on: HOP-92 NSCLC
# [14] = tested on: OVCAR-4 ovarian
# [15] = tested on: HOP-62 NSCLC
# [16] = tested on: SF-539 CNS
# [17] = tested on: SF-268 CNS
# [18] = tested on: SR leukemia
# [19] = tested on: MOLT-4 leukemia
# [20] = tested on: OVCAR-3 ovarian
# [21] = tested on: LOX IMVI melanoma
# [22] = tested on: MDA-MB-231 breast
# [23] = tested on: A498 renal
# [24] = tested on: HS 578T breast
# [25] = tested on: MDA-N
# [26] = tested on: SF-295 CNS
# [27] = tested on: EKVX NSCLC
# [28] = tested on: MCF7 breast
# [29] = tested on: M14 melanoma
# [30] = tested on: UACC-257 melanoma
# [31] = tested on: CCRF-CEM leukemia
# [32] = tested on: HL-60(TB) leukemia
# [33] = tested on: 786-0 renal
# [34] = tested on: CAKI-1 renal
# [35] = tested on: NCI-H460 lung
# [36] = tested on: A549 NSCLC
# [37] = tested on: SK-MEL-5 melanoma
# [38] = tested on: MALME-3M melanoma
# [39] = tested on: NCI/ADR-RES ovarian
# [40] = tested on: U251 CNS
# [41] = tested on: HCT-116 colon
# [42] = tested on: SK-MEL-2 melanoma
# [43] = tested on: DU-145 prostate
# [44] = tested on: MDA-MB-435
# [45] = tested on: KM12 colon
# [46] = tested on: SW-620 colon
# [47] = tested on: PC-3 prostate
# [48] = tested on: SNB-75 CNS
# [49] = tested on: NCI-H522 lung
# [50] = tested on: SK-MEL-28 melanoma
# [51] = tested on: IGROV1 ovarian
# [52] = tested on: HT29 colon
# [53] = tested on: RXF 393 renal
# [54] = tested on: UO-31 renal
# [55] = tested on: NCI-H226 lung
# [56] = tested on: RPMI-8226 leukemia
# [57] = tested on: OVCAR-8 ovarian
# [58] = tested on: SN12C renal
# [59] = tested on: OVCAR-5 ovarian
compound,measurement,setting,value
COc1ccc(C[N+](C)(CCCl)CCCl)c([N+](=O)[O-])c1,TGI,[1],> 100 µM
same,TGI,[2],> 100 µM
same,TGI,[3],> 100 µM
same,TGI,[4],> 100 µM
same,TGI,[5],> 100 µM
same,TGI,[6],> 100 µM
same,TGI,[7],> 100 µM
same,TGI,[8],> 100 µM
same,TGI,[9],> 100 µM
same,GI50,[10],90.7 µM
same,TGI,[10],> 100 µM
same,TGI,[11],> 100 µM
same,TGI,[12],> 100 µM
same,TGI,[13],> 100 µM
same,TGI,[14],> 100 µM
same,TGI,[15],> 100 µM
same,TGI,[16],> 100 µM
same,TGI,[17],> 100 µM
same,TGI,[18],> 100 µM
same,GI50,[19],40.4 µM
same,TGI,[19],> 100 µM
same,TGI,[20],> 100 µM
same,TGI,[21],> 100 µM
same,TGI,[22],> 100 µM
same,TGI,[23],> 100 µM
same,TGI,[24],> 100 µM
same,TGI,[25],> 100 µM
same,TGI,[26],> 100 µM
same,TGI,[27],> 100 µM
same,TGI,[28],> 100 µM
same,TGI,[29],> 100 µM
same,TGI,[30],> 100 µM
same,TGI,[31],> 100 µM
same,TGI,[32],> 100 µM
same,TGI,[33],> 100 µM
same,GI50,[34],63.9 µM
same,TGI,[34],> 100 µM
same,TGI,[35],> 100 µM
same,TGI,[36],> 100 µM
same,GI50,[37],27.8 µM
same,TGI,[37],> 100 µM
same,TGI,[38],> 100 µM
same,TGI,[39],> 100 µM
same,TGI,[40],> 100 µM
same,TGI,[41],> 100 µM
same,TGI,[42],> 100 µM
same,TGI,[43],> 100 µM
same,TGI,[44],> 100 µM
same,TGI,[45],> 100 µM
same,TGI,[46],> 100 µM
same,TGI,[47],> 100 µM
same,TGI,[48],> 100 µM
same,TGI,[49],> 100 µM
same,TGI,[50],> 100 µM
same,TGI,[51],> 100 µM
same,TGI,[52],> 100 µM
same,TGI,[53],> 100 µM
same,TGI,[54],> 100 µM
same,TGI,[55],> 100 µM
same,TGI,[56],> 100 µM
same,TGI,[57],> 100 µM
same,TGI,[58],> 100 µM
same,TGI,[59],> 100 µM
